Our source for the Ki values is US11660306B2, “Treatment of Rett syndrome” (Cold Spring Harbor Laboratory, priority 2014, dated 2023).

The target in assay [1] is PTP1B405 (Homo sapiens, UniProt P18031). Kind of assay: Triterpene inhibition of PTP1B405 (Table 2). The format is biochemical.
Assay [2] deals with PTP1B321 (Homo sapiens, UniProt P18031). Kind of assay: Triterpene inhibition of PTP1B321 (Table 2). The format is biochemical.

For the molecule `CC1(C)[C@@H](O)CC[C@]2(C)[C@H]3C(=O)C=C4[C@@H]5C[C@@](C)(C(=O)O)CC[C@]5(C)CC[C@@]4(C)[C@]3(C)CC[C@@H]12`, the inhibition constant (Ki) in assay [1] and in assay [2] was 10 µM throughout.
